CycPeptMPDB entries from one study

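The data file gives no further conditions (lipid, pH, time, direction or concentration), and values from different papers need not be comparable. The list need not hold all peptides of the study. Peptides that the database sets to -10, its floor, are left out.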

PAMPA measures passive passage through an artificial lipid membrane. Permeability is given as log10 of P in cm/s; higher (less negative) is more permeable.

* CC(=O)N1CCC[C@H]1C(=O)N(C)[C@H](CC(C)C)C(=O)N[C@@H]1C(=O)N[C@H](Cc2ccccc2)C(=O)N[C@@H](Cc2ccccc2)C(=O)N[C@H](Cc2ccc(F)c(F)c2)C(=O)N(C)[C@H](C)C(=O)N[C@@H](CC(C)C)C(=O)N2CCC[C@H]2C(=O)O[C@@H]1C: PAMPA -5.78 (log10 cm/s)
* COc1ccc(C[C@@H]2NC(=O)[C@@H](CC(C)C)NC(=O)[C@@H](NC(=O)[C@@H](CC(C)C)N(C)C(=O)[C@@H]3CCCN3C(C)=O)[C@@H](C)OC(=O)[C@@H]3CCCN3C(=O)[C@H](CC(C)C)NC(=O)[C@@H](C)N(C)C(=O)[C@@H](Cc3cccc4ccccc34)NC2=O)cc1: PAMPA -6.32 (log10 cm/s)
* CC(=O)N1CCC[C@H]1C(=O)N[C@@H]1C(=O)N(C)[C@H](CC(C)C)C(=O)N[C@H](CC(C)C)C(=O)N(C)[C@@H](CC(C)C)C(=O)N(C)[C@@H](CC(C)C)C(=O)N(C)[C@H](C)C(=O)N[C@@H](CC(C)C)C(=O)N2CCC[C@@H]2C(=O)O[C@@H]1C: PAMPA -6.06 (log10 cm/s)
* CC(=O)N1CCC[C@H]1C(=O)N(C)[C@H](CC(C)C)C(=O)N[C@@H]1C(=O)N[C@H](Cc2ccc(F)c(F)c2)C(=O)N[C@@H](CC(C)C)C(=O)N[C@H](Cc2ccc(F)c(F)c2)C(=O)N(C)[C@H](C)C(=O)N[C@@H](CC(C)C)C(=O)N2CCC[C@H]2C(=O)O[C@@H]1C: PAMPA -5.55 (log10 cm/s)
* CC(=O)N[C@@H]1C(=O)N2CCC[C@H]2C(=O)N(C)[C@H](CC(C)C)C(=O)N[C@H](CC(C)C)C(=O)N(C)[C@H](CC(C)C)C(=O)N(C)[C@@H](CC(C)C)C(=O)N[C@H](C)C(=O)N[C@@H](CC(C)C)C(=O)N2CCC[C@@H]2C(=O)O[C@@H]1C: PAMPA -5.46 (log10 cm/s)
* CC(=O)N1CCC[C@H]1C(=O)N(C)[C@H](CC(C)C)C(=O)N[C@@H]1C(=O)N[C@H](CC2CCCCC2)C(=O)N[C@@H](CCc2ccccc2)C(=O)N[C@H](Cc2ccccc2)C(=O)N(C)[C@H](C)C(=O)N[C@@H](CC(C)C)C(=O)N2CCC[C@H]2C(=O)O[C@@H]1C: PAMPA -6.85 (log10 cm/s)
* CC(=O)N[C@@H]1C(=O)N2CCC[C@H]2C(=O)N(C)[C@H](CC(C)C)C(=O)N(C)[C@H](CC(C)C)C(=O)N[C@H](CC(C)C)C(=O)N[C@H](CC(C)C)C(=O)N(C)[C@H](C)C(=O)N[C@@H](CC(C)C)C(=O)N2CCC[C@@H]2C(=O)O[C@@H]1C: PAMPA -6.72 (log10 cm/s)
* CC(=O)N1CCC[C@H]1C(=O)N(C)[C@H](CC(C)C)C(=O)N[C@@H]1C(=O)N[C@H](Cc2ccc(F)cc2)C(=O)N[C@@H](CCc2ccccc2)C(=O)N[C@H](Cc2cccc3ccccc23)C(=O)N(C)[C@H](C)C(=O)N[C@@H](CC(C)C)C(=O)N2CCC[C@H]2C(=O)O[C@@H]1C: PAMPA -6.85 (log10 cm/s)
* CCC[C@H]1NC(=O)[C@H](Cc2ccc(OC)cc2)NC(=O)[C@@H](CC)NC(=O)[C@@H](NC(=O)[C@@H](CC(C)C)N(C)C(=O)[C@@H]2CCCN2C(C)=O)[C@@H](C)OC(=O)[C@@H]2CCCN2C(=O)[C@H](CC(C)C)NC(=O)[C@@H](C)N(C)C1=O: PAMPA -6.85 (log10 cm/s)
* CC[C@H]1NC(=O)[C@@H](NC(=O)[C@@H](CC(C)C)N(C)C(=O)[C@@H]2CCCN2C(C)=O)[C@@H](C)OC(=O)[C@@H]2CCCN2C(=O)[C@H](CC(C)C)NC(=O)[C@@H](C)N(C)C(=O)[C@@H](CC2CCCCC2)NC(=O)[C@H](Cc2ccc(F)cc2)NC1=O: PAMPA -6.00 (log10 cm/s)
* CC(=O)N1CCC[C@H]1C(=O)N(C)[C@H](CC(C)C)C(=O)N[C@@H]1C(=O)N[C@H](Cc2ccccc2)C(=O)N[C@@H](CCc2ccccc2)C(=O)N[C@H](CC(C)C)C(=O)N(C)[C@H](C)C(=O)N[C@@H](CC(C)C)C(=O)N2CCC[C@H]2C(=O)O[C@@H]1C: PAMPA -5.36 (log10 cm/s)
* CCC[C@H]1NC(=O)[C@H](Cc2ccccc2)NC(=O)[C@@H](CC2CCCCC2)NC(=O)[C@@H](NC(=O)[C@@H](CC(C)C)N(C)C(=O)[C@@H]2CCCN2C(C)=O)[C@@H](C)OC(=O)[C@@H]2CCCN2C(=O)[C@H](CC(C)C)NC(=O)[C@@H](C)N(C)C1=O: PAMPA -5.33 (log10 cm/s)

The first 2 entries again:

compound	PAMPA (log10 cm/s)
CC(=O)N1CCC[C@H]1C(=O)N(C)[C@H](CC(C)C)C(=O)N[C@@H]1C(=O)N[C@H](Cc2ccccc2)C(=O)N[C@@H](Cc2ccccc2)C(=O)N[C@H](Cc2ccc(F)c(F)c2)C(=O)N(C)[C@H](C)C(=O)N[C@@H](CC(C)C)C(=O)N2CCC[C@H]2C(=O)O[C@@H]1C	-5.78
COc1ccc(C[C@@H]2NC(=O)[C@@H](CC(C)C)NC(=O)[C@@H](NC(=O)[C@@H](CC(C)C)N(C)C(=O)[C@@H]3CCCN3C(C)=O)[C@@H](C)OC(=O)[C@@H]3CCCN3C(=O)[C@H](CC(C)C)NC(=O)[C@@H](C)N(C)C(=O)[C@@H](Cc3cccc4ccccc34)NC2=O)cc1	-6.32

Values of Kelly et al. 2021, doi:10.1021/jacs.0c06115, as listed in CycPeptMPDB.